These are literature values, as cited in patent publication US20120016021A1, “METHODS OF TREATING FRAGILE X SYNDROME, DOWN'S SYNDROME, AUTISM AND RELATED DISORDERS” (XENOPORT, INC., priority 2010, published 2012).

The subject of the data set is autistic children.

Turning to `Cc1nc2n(c(=O)c1CCN1CCC(c3noc4cc(F)ccc34)CC1)CCCC2` [risperidone], the adverse events result was “weight gain, increased appetite, fatigue, drowsiness, dizziness, and drooling”.
